{
  "source": "patent US10202593B2",
  "about": "“Evolved sortases and uses thereof” (President and Fellows of Harvard College, priority 2013, dated 2019)",
  "biological_target": "T1, eSrtA + Btn-LAETGG (Staphylococcus aureus, UniProt Q2FV99, D160N/D165A/K190E/K196T/P94R)",
  "T1 construct": "All expressed sortases lack the N-terminal 59 amino acids; expressed in transfected cells; host or cells: S. cerevisiae ICY200 (pCTCon2CTev vector)",
  "T1 sequence (Q2FV99 60-206 P94R/D160N/D165A/G167E/K190E/K196T)": "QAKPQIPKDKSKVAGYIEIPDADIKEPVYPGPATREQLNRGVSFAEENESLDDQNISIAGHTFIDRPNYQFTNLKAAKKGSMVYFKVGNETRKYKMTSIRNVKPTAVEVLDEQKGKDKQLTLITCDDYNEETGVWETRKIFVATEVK",
  "assay": "Competitive negative screen on yeast displaying eSrtA (flow cytometry)",
  "type": "cell-based, S. aureus",
  "conditions": "100 μM LPETG; 10 μM biotin-LAETG, 1 hour",
  "description": "FIG. 22 depicts the validation of a competitive negative screen for sortase specificity. ICY200 Yeast displaying eSrtA were induced overnight with SGR media, then incubated for one hour with 10 μM Btn-LAETGG (SEQ ID NO: 35) peptide and between 100 nM and 1 mM non-biotinylated LPETGG (SEQ ID NO: 36) peptide in TBS supplemented with 5 mM CaCl2. Cells were cleaved using TEV, labeled for expression and activity as described above, and assayed by flow cytometry.\nWe incubated these cells with 10 μM biotin-LAETG (SEQ ID NO: 5) and a range of 100 nM to 1 mM non-biotinylated LPETG (SEQ ID NO: 4) for 1 hour (FIG. 22).",
  "data": [
    {"smiles": "CC(C)C[C@H](N)C(=O)N1CCC[C@H]1C(=O)N[C@@H](CCC(=O)O)C(=O)N[C@H](C(=O)NCC(=O)NCC(=O)O)[C@@H](C)O", "note": "[LPETG]", "values": [
      {"measurement": "inhibition of cell biotinylation", "result": "virtually complete inhibition"}
    ]}
  ]
}
